Measured values: patent US8795992B2, “Yeast with increased butanol tolerance involving cell wall integrity pathway” (Butamax Advanced Biofuels LLC, priority 2008, dated 2014)

System: SLT2p over-producing strain (BY4741 with GAL1 promoter SLT2 ORF plasmid)
Test: Growth yield of SLT2p over-producing strain in galactose medium with isobutanol
Details: SLT2p over-producing strain vs BY4741; 1 wt % isobutanol

CC(C)CO [isobutanol]
improvement in growth yield over the parental strain: 29%
